Experimental data reported in PubChem BioAssay AID1471 (National Center for Advancing Translational Sciences (NCATS), 2008).
The entries are a selection whose mix differs from that of the whole data set. Some tests of the compounds listed are not included; inactive here does not mean inactive elsewhere. The source made the active and inactive calls. The call rests on the fitted dose curve; in most records, active means well fitted activation curve with a large enough effect; inconclusive means small, poorly fitted or top-dose-only effect; inactive means no such curve, though single readings can be large or run the other way.

Test: qHTS Multiplex Assay to Identify Dual Action Probes in a Cell Model of Huntington: Cytoprotection (ATP);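 further: toxic huntingtin expression switched on by the ecdysone agonist tebufenozide; % of control where 0% means no effect; nearly all actives have a fitted effect of over 45% in size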
Conditions: PC12 HTT-Q103 induced, ATP luminescence, 40 h; at 10 µM unless noted
Description: NIH Chemical Genomics Center [NCGC]
NIH Molecular Libraries Probe Production centers Network [MLPCN]
Assay Submitter (PI): Wei Zheng
Huntington's disease is a neurodegenerative disorder caused by a trinucleotide repeat expansion in Exon 1 of the Huntingtin gene. The CAG trinucleotide encodes glutamine and polyglutamine expansions cause cell death in selective areas of the brain. Huntington polyglutamine repeats have the tendency to form aggregates which are observable in later stages of the disease. The exact nature of the aggregates, whether toxic, protective, or insignificant, is unclear.
A stable PC12 cell line containing a gene fusion of Exon 1 of the Huntingtin gene linked to GFP under the control of the inducible ecdysone promoter were used as the cell-based model of Huntington Disease for high throughput screening. Exon 1 of the Huntingtin gene contained an expansion of 103 polyglutamines (Q103) which, when expressed, caused cell death and distinct, bright GFP aggregates. The amount of cell death and the size and intensity of GFP aggregates increased over time and induction level. The cell death were quantified with a measurement of ATP content in the cells. A maximal 40-50% of cell death was observed when the Huntington gene was induced in this cell line.
We optimized this assay in a homogeneous 1536 well format. A quantitative high throughput screen (qHTS) was conducted on the PC12 cells which were induced to express the toxic fusion construct. Small molecules which prevented cell death were identified by using a luminescent ATP quantification method (Perkin Elmer's ATPlite).
PC12 cells stably containing a construct with an ecdysone inducible promoter expressing GFP fused to the exon 1 of HTTQ103 (Huntington protein which containing a 103 ployglutamine expansion) were used.
NCGC Assay Protocol Summary:
Sequence, Parameter, Description
1, Reagent, 5 uL 1500 cells/well 1536 TC treated White clear bottom plate
2, Compound, 23 nL Tebufenozide inducer (100 nM final) to all columns
3, Compound, 23 nL 40 uM to 0.5 nM Libraries
5, Reagent, 5 ul ATPLite cell death assay reagent
6, Detector, 4 sec integration with a Viewlux Luminescent
Media consisted of phenol red free DMEM + 5% equine serum (Hyclone # SH30072.03 ), 5% supplemented Bovine Calf Serum (Hyclone # SH30074.03 ), 1x pen/strep, no G418
Control columns: 1 = DMSO, 2= 2 uM teb dilns (1:1), 4 = 100 nM Teb inducer. Sample columns received 100 nM Teb.

SMILES | cytoprotection (ATP increase)
COc1cccc(C(=O)NCC2(N3CCCCC3)CCCCC2)c1 | inactive: 10.4% [at 56.4 µM]
CN1CCC[C@H](OC(=O)[C@](O)(c2ccccc2)C2CCCC2)C1 | inactive: 16.2%
CN1CC[C@H](OC(=O)[C@](O)(c2ccccc2)C2CCCC2)C1 | inactive: -0.351%
O=C(OC1CN2CCC1CC2)C(CO)(c1ccccc1)c1ccccc1 (stereo not drawn) | inactive: -16.6%
C=C(C)C#C[C@@](O)(C(=O)OC1CCN(C)CC1)c1ccccc1 | inactive: -4.93%
COc1ccc(Br)c(C(=O)NCC2(N3CCCCC3)CCCCC2)c1 | inactive: 7.41%
CN(C)c1cccc(C(=O)NCC2(N(C)C)CCCCC2)c1 | inactive: -1.41% [at 56.4 µM]
O=C(NCC1(N2CCCCC2)CCCCC1)c1cc([N+](=O)[O-])ccc1Cl | inactive: 3.75% [at 56.4 µM]
CCN(CC)CC(C)C(C)OC(=O)C(O)(c1ccccc1)c1ccccc1 (stereo not drawn) | inactive: 17.5%
CC(C)N1C(=O)CC2(CCN(CCOC(=O)C(O)(c3ccccc3)c3ccccc3)CC2)C1=O | inactive: 9.64% [at 56.4 µM]
CN(C)C1CCCC1OC(=O)C(O)(c1ccccc1)c1ccccc1 (stereo not drawn) | inactive: -11.5%
CN1CCCC(OC(=O)C(O)(c2ccccc2)c2ccccc2)C1 (stereo not drawn) | inactive: -4.06% [at 56.4 µM]
C=CCN1CCN(CCOC(=O)C(O)(c2ccccc2)c2ccccc2)CC1 | inactive: -6.17%
